Data as given in US10532018B2, “Method of whitening skin using tranexamic acid-peptide having skin whitening activity” (ANPEP INC., priority 2016, dated 2020).

Legend:
[1] = tested on: microphthalmia-associated transcription factor (MITF); test: MITF expression by RT-PCR in α-MSH-treated cells; type: cell-based, mouse; settings: α-MSH-treated melanocytes (B16F10)
B16F1 cells = test: Screening of tranexamic acid-peptides: intracellular melanin production in α-MSH-treated melanocytes; type: cell-based, mouse; settings: α-MSH 20 μg/mL, 3 days; for inhibitory effect against α-MSH compared with Arbutin and AA2G: 1-250 μg/mL; for α-MSH Inhibitory Ability (%): intracellular melanin at 490 nm, Control (No Treatment) = 100, test concentration not stated (1-250 μg/mL tested)
Experimental: B16F1 cells, which are mouse melanocytes, were cultured in Dulbecco's modified Eagle's media (DMEM, Sigma), to which 10% fetal bovine serum (FBS, Sigma) was added, under 37° C. CO2 conditions. The cells were cultured in a 24-well plate at a concentration of 1×10^5 cells/well, and the attachment of cells was confirmed. Then, the control group was not treated with anything but only a solvent was added thereto, whereas a-MSH (20 μg/mL) was added to the positive control group. The remaining dishes were treated with α-MSH (20 μg/mL), 40 kinds of tranexamic acid-peptides, and the control group with Arbutin and AA2G, to a concentration of 1 μg/mL, 10 μg/mL, 100 μg/mL, and 250 μg/mL, respectively. Test materials were added to each dish and cultured for 3 days. After 3 days, the culture was removed by centrifugation, and the cells were lysed and intracellular melanin was collected, and observed at 490 nm to measure the amount of intracellular melanin production.
40 kinds of tranexamic acid-peptides were treated according to concentration, and their inhibitory effect against melanin production was measured.

[2] = tested on: skin pigmentation (melanin index); test: Clinical test of creams: skin pigmentation by Mexameter; type: in vivo, human; settings: 2 times a day
Source text: In particular, a cream containing tranexamic acid was used as the positive control group and the standard base cream was used as the negative control group.
The face of each subject was divided into two parts vertically and the two kinds of creams prepared above were applied to each face. The subjects were required to continuously use the creams in the morning and evening, 2 times a day for 8 weeks after washing the face.
For the objective evaluation of changes in skin pigmentation before and after the use of the creams, the changes in pigmentation were measured using the Mexameter (CK, Germany) before the use of the creams, 2 weeks, 4 weeks, 6 weeks, and 8 weeks after the use of the creams.
As a result of the above experiment, the tranexamic acid-dipeptide with a greater effect between the two kinds of tranexamic acid-dipeptides, was selected and, as an attempt to reduce the content in the cream, a cream containing 0.5% tranexamic acid-dipeptide was prepared. Ten women subjects were collected and the 8-week clinical experiment was performed in the same manner as described above.

mouse melanocytes = test: Whitening effect: melanin production in α-MSH-treated melanocytes by visual inspection; type: cell-based; settings: α-MSH 20 μg/mL, 1-250 μg/mL, 3 days
Experimental: According to a preferred embodiment of the present invention, the peptides of the present invention […] the melanin production in a concentration-dependent manner. […] Additionally, when cells were treated with 4 kinds of the tranexamic acid-peptides; the peptides, to which tranexamic acid was not bound; Arbutin; and AA2G at various concentrations (1μ, 10μ, 100μ, and 250μ), cultured for 3 days, and the absorbance of the cultures were measured at 490 nm and analyzed.
Tranexamic acid-peptides were treated according to concentration and their inhibitory effect against melanin production was measured. The mouse melanocytes were cultured in Dulbecco's modified Eagle's media (DMEM, Sigma) containing 10% fetal bovine serum ([…], Sigma) under 37° C. CO2 conditions.
The cells were cultured in a 24-well plate at a concentration of 1×10^5 cells/well, and the attachment of cells was confirmed. Then, the control group was not treated with anything but only a solvent was added thereto, whereas a-MSH ([…]) was added to the positive control group. The remaining dishes were treated with α-MSH (20 μg/mL), 4 kinds of tranexamic acid-peptides, and the control group with Arbutin and AA2G, to a concentration of 1 μg/mL, 10 μg/mL, 100 μg/mL, and 250μ), respectively. Test materials were added to each dish and cultured for 3 days. […]

[3] = 54 women, creams with 1% tranexamic acid-dipeptide or tranexamic acid

Substance	expression of MITF (mRNA) [1]	inhibitory effect against α-MSH compared with Arbutin and AA2G (B16F1 cells)	α-MSH Inhibitory Ability (%) (B16F1 cells)	decrease of the melanin index after 8 weeks [2, 3]	amount of melanin production by visual inspection (mouse melanocytes)	decrease of the melanin index after 8 weeks ([2]; ten women, cream with 0.5% tranexamic acid-dipeptide or tranexamic acid)
Tranexamil-AP [Dipeptide-3 AP]	inhibited the expression of the gene (MITF)	superior to Arbutin and AA2G	41%	–	–	–
Tranexamil-PS [Dipeptide-27 PS]	inhibited the expression of the gene (MITF)	superior to Arbutin and AA2G	28%	183.2%	decreased in a concentration-dependent manner	–
Tranexamil-VS [Dipeptide-23 VS]	inhibited the expression of the gene (MITF)	superior to Arbutin and AA2G	24%	22.9%	–	23.9%
